Measurements as given in patent US20050142634A1, “Novel modulator of non-genomic activity of nuclear receptors (mnar) and uses thereof” (Wyeth, priority 2001, published 2005).

Sequences of proteins named here, by UniProt entry; tags and fusion partners are left off.
UniProt Q92731, whole entry, species assumed: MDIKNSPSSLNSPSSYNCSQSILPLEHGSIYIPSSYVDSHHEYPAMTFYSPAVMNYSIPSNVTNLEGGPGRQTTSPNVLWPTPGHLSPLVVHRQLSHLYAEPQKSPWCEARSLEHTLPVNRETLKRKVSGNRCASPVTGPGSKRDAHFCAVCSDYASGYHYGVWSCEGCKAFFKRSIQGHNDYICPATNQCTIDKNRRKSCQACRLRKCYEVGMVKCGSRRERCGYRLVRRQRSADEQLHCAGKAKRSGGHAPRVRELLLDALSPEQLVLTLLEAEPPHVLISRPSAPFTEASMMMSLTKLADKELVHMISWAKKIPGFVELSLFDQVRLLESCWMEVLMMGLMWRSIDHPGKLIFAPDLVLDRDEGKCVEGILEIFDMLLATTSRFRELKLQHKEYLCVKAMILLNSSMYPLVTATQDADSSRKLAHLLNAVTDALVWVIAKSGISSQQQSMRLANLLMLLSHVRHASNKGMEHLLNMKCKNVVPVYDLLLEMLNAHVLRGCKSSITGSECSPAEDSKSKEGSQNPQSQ

Biological target: ERβ (Homo sapiens, UniProt Q92731)
Assay: MNAR-ER interaction analysis (flag-MNAR pull-down)
Assay type: binding
Conditions: full-length flag-MNAR, in vitro transcribed/translated full-length ERβ, ligand 1 μM

For C[C@]12CC[C@@H]3c4ccc(O)cc4CC[C@H]3[C@@H]1CC[C@@H]2O [E2, 17β-estradiol], the “ERβ interaction with MNAR” value was “enhanced”.
